Chains of the proteins cited; added tags and fusions are not shown. Lines headed by an entry give the natural chain unless they say otherwise; changes in a name come on top. Residues count along the entry.
UniProt Q16531, whole entry: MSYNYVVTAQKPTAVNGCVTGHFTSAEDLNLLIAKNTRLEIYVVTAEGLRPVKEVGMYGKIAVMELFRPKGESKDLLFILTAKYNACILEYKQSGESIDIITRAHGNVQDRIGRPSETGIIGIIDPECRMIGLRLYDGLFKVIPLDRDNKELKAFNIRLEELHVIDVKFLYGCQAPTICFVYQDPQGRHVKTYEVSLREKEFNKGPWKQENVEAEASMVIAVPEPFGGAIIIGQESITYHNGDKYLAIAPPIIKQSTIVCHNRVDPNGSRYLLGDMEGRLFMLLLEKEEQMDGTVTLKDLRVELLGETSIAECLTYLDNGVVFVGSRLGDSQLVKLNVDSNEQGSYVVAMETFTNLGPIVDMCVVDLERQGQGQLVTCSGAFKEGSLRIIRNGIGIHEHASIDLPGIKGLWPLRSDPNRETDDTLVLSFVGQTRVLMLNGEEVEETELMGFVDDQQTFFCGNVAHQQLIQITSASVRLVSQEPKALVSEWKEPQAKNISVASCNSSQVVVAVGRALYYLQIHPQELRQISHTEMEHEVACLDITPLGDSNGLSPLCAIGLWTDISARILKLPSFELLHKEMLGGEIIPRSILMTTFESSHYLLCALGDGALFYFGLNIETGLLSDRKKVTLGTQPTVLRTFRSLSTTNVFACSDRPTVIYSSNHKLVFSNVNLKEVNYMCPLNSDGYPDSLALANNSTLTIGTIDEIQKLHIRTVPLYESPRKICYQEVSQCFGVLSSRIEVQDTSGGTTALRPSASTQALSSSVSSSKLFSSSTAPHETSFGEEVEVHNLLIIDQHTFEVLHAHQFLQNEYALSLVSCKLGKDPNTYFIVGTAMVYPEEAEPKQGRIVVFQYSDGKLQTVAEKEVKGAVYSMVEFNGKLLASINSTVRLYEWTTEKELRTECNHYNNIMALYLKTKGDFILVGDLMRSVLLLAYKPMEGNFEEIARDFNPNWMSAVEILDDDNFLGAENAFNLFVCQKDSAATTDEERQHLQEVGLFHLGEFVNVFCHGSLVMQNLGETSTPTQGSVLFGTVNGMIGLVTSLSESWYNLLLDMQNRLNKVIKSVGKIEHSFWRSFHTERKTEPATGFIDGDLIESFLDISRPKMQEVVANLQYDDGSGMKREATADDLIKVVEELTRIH
UniProt Q9NYV4, 713-1052 K965R: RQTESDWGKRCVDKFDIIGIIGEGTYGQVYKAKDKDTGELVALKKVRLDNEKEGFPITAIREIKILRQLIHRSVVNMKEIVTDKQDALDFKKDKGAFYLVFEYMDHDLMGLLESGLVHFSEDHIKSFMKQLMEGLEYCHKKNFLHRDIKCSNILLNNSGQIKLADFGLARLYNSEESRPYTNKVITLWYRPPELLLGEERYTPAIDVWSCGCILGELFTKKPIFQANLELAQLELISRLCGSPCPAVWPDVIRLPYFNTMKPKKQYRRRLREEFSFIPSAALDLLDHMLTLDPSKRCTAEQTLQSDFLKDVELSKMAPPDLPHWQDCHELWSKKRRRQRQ
UniProt P50750, whole entry: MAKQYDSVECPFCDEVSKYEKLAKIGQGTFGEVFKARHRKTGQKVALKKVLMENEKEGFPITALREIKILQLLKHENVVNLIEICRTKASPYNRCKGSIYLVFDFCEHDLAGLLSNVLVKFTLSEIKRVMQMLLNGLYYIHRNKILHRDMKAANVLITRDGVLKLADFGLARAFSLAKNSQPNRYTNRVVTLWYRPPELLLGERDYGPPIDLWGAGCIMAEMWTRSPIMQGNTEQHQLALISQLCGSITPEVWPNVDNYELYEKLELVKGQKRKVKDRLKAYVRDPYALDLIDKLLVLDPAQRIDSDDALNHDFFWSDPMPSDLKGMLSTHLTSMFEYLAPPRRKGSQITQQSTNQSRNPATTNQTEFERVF

In paper PMC10746543, “Design principles for cyclin K molecular glue degraders” (Nature Chemical Biology, 2023):

What was measured:
CDK12–cyclin K and DDB1 [1] = molecular target: T1, CDK12–cyclin K and DDB1 (Homo sapiens, UniProt Q16531+Q9NYV4, K965R); assay: TR-FRET Kd determination, quadratic fit, 50 nM or 10 nM CDK12–cyclin K; format: binding; parameters: His6–CDK12 (a.a. 713–1,052); full-length or beta-propeller B domain deletion (ΔBPB: a.a. 396–705 deleted) constructs of His6–DDB1ΔBPB, StrepII–Avi–DDB1, or His6–Spy–DDB1; made in house; host or cells: Trichoplusia ni High Five insect cells (baculovirus)
CDK12–cyclin K and DDB1 [2] = molecular target: T1, CDK12–cyclin K and DDB1; assay: TR-FRET ternary complex formation assay (compound titration); details: for TR-FRET signal at compound concentration: replicate titrations
CDK9–cyclin T = molecular target: T2, CDK9–cyclin T (Homo sapiens, UniProt P50750); assay: Lanthascreen kinase binding assay, CDK9; details: Supplementary Table 2
T2 construct: purchased Thermo Fisher

[3] = compound concentration 79.2001 nM
[4] = compound concentration 158.4 nM
[5] = compound concentration 309.6 nM
[6] = compound concentration 626.401 nM
[7] = compound concentration 1252.8 nM
[8] = compound concentration 9936.01 nM
[9] = compound concentration 20016 nM

CC[C@H](CO)Nc1nc(NCc2ccccc2)c2ncn(C(C)C)c2n1 [Roscovitine, reference compound]
TR-FRET signal (CDK12–cyclin K and DDB1 [1]; 10 nM CDK12-cyclin K, compound 4.68001 nM): 0.09223 | TR-FRET signal (CDK12–cyclin K and DDB1 [1]; 10 nM CDK12-cyclin K, compound 21.6 nM): 0.09342 | TR-FRET signal (CDK12–cyclin K and DDB1 [1]; 10 nM CDK12-cyclin K, compound 36 nM): 0.09758 | TR-FRET signal (CDK12–cyclin K and DDB1 [1]; 10 nM CDK12-cyclin K, compound 79.2001 nM): 0.1019 | TR-FRET signal (CDK12–cyclin K and DDB1 [1]; 10 nM CDK12-cyclin K, compound 158.4 nM): 0.1122 | TR-FRET signal (CDK12–cyclin K and DDB1 [1]; 10 nM CDK12-cyclin K, compound 309.6 nM): 0.1249 | TR-FRET signal (CDK12–cyclin K and DDB1 [1]; 10 nM CDK12-cyclin K, compound 626.399 nM): 0.1365 | TR-FRET signal (CDK12–cyclin K and DDB1 [1]; 10 nM CDK12-cyclin K, compound 1252.79 nM): 0.1538 | TR-FRET signal (CDK12–cyclin K and DDB1 [1]; 10 nM CDK12-cyclin K, compound 2448 nM): 0.1657 | TR-FRET signal (CDK12–cyclin K and DDB1 [1]; 10 nM CDK12-cyclin K, compound 9936 nM): 0.1818 | TR-FRET signal (CDK12–cyclin K and DDB1 [1]; 10 nM CDK12-cyclin K, compound 20016 nM): 0.1827 | TR-FRET signal (CDK12–cyclin K and DDB1 [1]; 50 nM CDK12-cyclin K, compound 4.68001 nM): 0.2099 | TR-FRET signal (CDK12–cyclin K and DDB1 [1]; 50 nM CDK12-cyclin K, compound 21.6 nM): 0.215 | TR-FRET signal (CDK12–cyclin K and DDB1 [1]; 50 nM CDK12-cyclin K, compound 36 nM): 0.2441 | TR-FRET signal (CDK12–cyclin K and DDB1 [1]; 50 nM CDK12-cyclin K, compound 79.2001 nM): 0.2709 | TR-FRET signal (CDK12–cyclin K and DDB1 [1]; 50 nM CDK12-cyclin K, compound 158.4 nM): 0.3191 | TR-FRET signal (CDK12–cyclin K and DDB1 [1]; 50 nM CDK12-cyclin K, compound 309.6 nM): 0.3772 | TR-FRET signal (CDK12–cyclin K and DDB1 [1]; 50 nM CDK12-cyclin K, compound 626.399 nM): 0.4718 | TR-FRET signal (CDK12–cyclin K and DDB1 [1]; 50 nM CDK12-cyclin K, compound 1252.79 nM): 0.5706 | TR-FRET signal (CDK12–cyclin K and DDB1 [1]; 50 nM CDK12-cyclin K, compound 2448 nM): 0.6386 | TR-FRET signal (CDK12–cyclin K and DDB1 [1]; 50 nM CDK12-cyclin K, compound 9936 nM): 0.7225 | TR-FRET signal (CDK12–cyclin K and DDB1 [1]; 50 nM CDK12-cyclin K, compound 20016 nM): 0.7219 | TR-FRET signal, individual replicate (CDK12–cyclin K and DDB1 [2]; compound concentration 4.68 nM): 0.2126 and 0.2299 and 0.1257 and 0.1312 | TR-FRET signal at compound concentration 4.68 nM (CDK12–cyclin K and DDB1 [2]; compound concentration 4.68 nM, raw replicate titration data): 0.2126 and 0.2299 and 0.1257 and 0.1312 | TR-FRET signal at compound concentration (CDK12–cyclin K and DDB1 [2]; compound concentration 4.68 nM): 0.2126 and 0.2299 and 0.1257 and 0.1312 | TR-FRET signal, individual replicate (CDK12–cyclin K and DDB1 [2]; compound concentration 21.6 nM): 0.2257 and 0.2471 and 0.1393 and 0.1531 | TR-FRET signal at compound concentration 21.6 nM (CDK12–cyclin K and DDB1 [2]; compound concentration 21.6 nM, raw replicate titration data): 0.2257 and 0.2471 and 0.1393 and 0.1531 | TR-FRET signal at compound concentration (CDK12–cyclin K and DDB1 [2]; compound concentration 21.6 nM): 0.2257 and 0.2471 and 0.1393 and 0.1531 | TR-FRET signal, individual replicate (CDK12–cyclin K and DDB1 [2]; compound concentration 36 nM): 0.262 and 0.2844 and 0.1642 and 0.1813 | TR-FRET signal at compound concentration 36 nM (CDK12–cyclin K and DDB1 [2]; compound concentration 36 nM, raw replicate titration data): 0.262 and 0.2844 and 0.1642 and 0.1813 | TR-FRET signal at compound concentration (CDK12–cyclin K and DDB1 [2]; compound concentration 36 nM): 0.262 and 0.2844 and 0.1642 and 0.1813 | TR-FRET signal, individual replicate (CDK12–cyclin K and DDB1 [2]; [3]): 0.3118 and 0.3459 and 0.2061 and 0.2249 | TR-FRET signal at compound concentration 79.2001 nM (CDK12–cyclin K and DDB1 [2]; compound concentration 79.2001 nM, raw replicate titration data): 0.3118 and 0.3459 and 0.2061 and 0.2249 | TR-FRET signal at compound concentration (CDK12–cyclin K and DDB1 [2]; [3]): 0.3118 and 0.3459 and 0.2061 and 0.2249 | TR-FRET signal, individual replicate (CDK12–cyclin K and DDB1 [2]; [4]): 0.3813 and 0.4341 and 0.2653 and 0.3104 | TR-FRET signal at compound concentration 158.4 nM (CDK12–cyclin K and DDB1 [2]; compound concentration 158.4 nM, raw replicate titration data): 0.3813 and 0.4341 and 0.2653 and 0.3104 | TR-FRET signal at compound concentration (CDK12–cyclin K and DDB1 [2]; [4]): 0.3813 and 0.4341 and 0.2653 and 0.3104 | TR-FRET signal, individual replicate (CDK12–cyclin K and DDB1 [2]; [5]): 0.4744 and 0.5369 and 0.3534 and 0.4162 | TR-FRET signal at compound concentration 309.6 nM (CDK12–cyclin K and DDB1 [2]; compound concentration 309.6 nM, raw replicate titration data): 0.4744 and 0.5369 and 0.3534 and 0.4162 | TR-FRET signal at compound concentration (CDK12–cyclin K and DDB1 [2]; [5]): 0.4744 and 0.5369 and 0.3534 and 0.4162 | TR-FRET signal, individual replicate (CDK12–cyclin K and DDB1 [2]; [6]): 0.6027 and 0.6864 and 0.4712 and 0.5089 | TR-FRET signal at compound concentration 626.401 nM (CDK12–cyclin K and DDB1 [2]; compound concentration 626.401 nM, raw replicate titration data): 0.6027 and 0.6864 and 0.4712 and 0.5089 | TR-FRET signal at compound concentration (CDK12–cyclin K and DDB1 [2]; [6]): 0.6027 and 0.6864 and 0.4712 and 0.5089 | TR-FRET signal, individual replicate (CDK12–cyclin K and DDB1 [2]; [7]): 0.7525 and 0.8428 and 0.5942 and 0.637 | TR-FRET signal at compound concentration 1252.8 nM (CDK12–cyclin K and DDB1 [2]; compound concentration 1252.8 nM, raw replicate titration data): 0.7525 and 0.8428 and 0.5942 and 0.637 | TR-FRET signal at compound concentration (CDK12–cyclin K and DDB1 [2]; [7]): 0.7525 and 0.8428 and 0.5942 and 0.637 | TR-FRET signal, individual replicate (CDK12–cyclin K and DDB1 [2]; compound concentration 2448 nM): 0.8856 and 0.9877 and 0.7182 and 0.7806 | TR-FRET signal at compound concentration 2448 nM (CDK12–cyclin K and DDB1 [2]; compound concentration 2448 nM, raw replicate titration data): 0.8856 and 0.9877 and 0.7182 and 0.7806 | TR-FRET signal at compound concentration (CDK12–cyclin K and DDB1 [2]; compound concentration 2448 nM): 0.8856 and 0.9877 and 0.7182 and 0.7806 | TR-FRET signal, individual replicate (CDK12–cyclin K and DDB1 [2]; [8]): 1.014 and 1.149 and 0.8185 and 0.8884 | TR-FRET signal at compound concentration 9936.01 nM (CDK12–cyclin K and DDB1 [2]; compound concentration 9936.01 nM, raw replicate titration data): 1.014 and 1.149 and 0.8185 and 0.8884 | TR-FRET signal at compound concentration (CDK12–cyclin K and DDB1 [2]; [8]): 1.014 and 1.149 and 0.8185 and 0.8884 | TR-FRET signal, individual replicate (CDK12–cyclin K and DDB1 [2]; [9]): 1.042 and 1.162 and 0.8706 and 0.8937 | TR-FRET signal at compound concentration 20016 nM (CDK12–cyclin K and DDB1 [2]; compound concentration 20016 nM, raw replicate titration data): 1.042 and 1.162 and 0.8706 and 0.8937 | TR-FRET signal at compound concentration (CDK12–cyclin K and DDB1 [2]; [9]): 1.042 and 1.162 and 0.8706 and 0.8937

CC(C)c1nn(-c2c(Cl)cccc2Cl)c2nc(Cc3ccc(OCCO)cc3)[nH]c(=O)c12 [compound 21195]
IC50 (CDK9–cyclin T): 1 nM

“And” between values parts separate entries of the source, which are not always exact repeats. Equal values may be shown once.
